These compounds were tested against recombinant human CCR5 receptor (Homo sapiens, UniProt P51681) (assay: in vitro radioligand binding assay: inhibition of binding of iodinated MIP-1α to membranes of CHO cells expressing CCR5 (scintillation proximity)). Conditions: displacement of 0.1 nM iodinated MIP-1α; negative log (base 10) of IC50; average if tested more than once.
Experimental: The ability of compounds to inhibit the binding of MIP-1α was assessed by an in vitro radioligand binding assay. Membranes were prepared from Chinese hamster ovary cells which expressed the recombinant human CCR5 receptor. These membranes were incubated with 0.1 nM iodinated MIP-1α, scintillation proximity beads and various concentrations of the compounds of the invention in 96-well plates. The amount of iodinated MIP-1α bound to the receptor was determined by scintillation counting. Competition curves were obtained for compounds and the concentration of compound which displaced 50% of bound iodinated MIP-1α was calculated (IC50).
In Table IV the results are presented as Pic50 values. A Pic50 value is the negative log (to base 10) of the IC50 result, so an IC50 of 1 μM (that is 1×10^−6M) gives a Pic50 of 6. If a compound was tested more than once then the data below is an average of the probative tests results.

The chains behind the UniProt entries cited, without tags or fusion partners.
UniProt P51681, whole entry: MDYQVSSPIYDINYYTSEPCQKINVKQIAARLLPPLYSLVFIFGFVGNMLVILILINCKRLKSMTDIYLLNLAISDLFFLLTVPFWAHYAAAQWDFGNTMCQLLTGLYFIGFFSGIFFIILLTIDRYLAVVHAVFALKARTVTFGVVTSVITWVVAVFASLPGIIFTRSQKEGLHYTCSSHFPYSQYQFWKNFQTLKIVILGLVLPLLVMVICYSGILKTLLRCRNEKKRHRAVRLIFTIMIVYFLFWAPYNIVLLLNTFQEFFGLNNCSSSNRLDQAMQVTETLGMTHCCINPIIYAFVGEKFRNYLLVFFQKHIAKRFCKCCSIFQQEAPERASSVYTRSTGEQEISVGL

Row | Compound | Pic50
1 | CS(=O)(=O)c1ccc([C@@H](CCN2CCC(CCS(=O)(=O)N3CCC(F)CC3)CC2)c2cc(F)cc(F)c2)cc1 | 8.9
2 | CN1CCN(S(=O)(=O)CCC2CCN(CC[C@H](c3ccc(S(C)(=O)=O)cc3)c3cc(F)cc(F)c3)CC2)CC1 | 8.6
3 | CS(=O)(=O)c1ccc([C@@H](CCN2CCC(CCS(=O)(=O)N3CCCC3)CC2)c2cc(F)cc(F)c2)cc1 | 8.3

Second part, the compound after the results:

Row | Pic50 | Compound
4 | 8.0 | CS(=O)(=O)c1ccc([C@@H](CCN2CCC(CCS(=O)(=O)N3CCOCC3)CC2)c2cc(F)cc(F)c2)cc1
5 | 9.2 | CCS(=O)(=O)N1CCN(S(=O)(=O)CCC2CCN(CC[C@H](c3ccc(S(C)(=O)=O)cc3)c3cc(F)cc(F)c3)CC2)CC1

From US20060205769A1, “Piperidine or 8-aza-bicyclo[3.2.1]oct-3-yl derivatives useful as modulators of chemokine receptor activity” (priority 2003, published 2006)
